Experimental data reported in ChEMBL document CHEMBL3399974, “Discovery and SAR of novel series of imidazopyrimidinones and dihydroimidazopyrimidinones as positive allosteric modulators of the metabotropic glutamate receptor 5 (mGlu5)” (Bioorg Med Chem Lett, 2015).

Test: Extraction ratio in rat hepatocytes
Format: ADME, cell-based, Hepatocyte
Details: read-out: ERH

O=C1N(c2ccc(F)cc2)CCc2nc(COc3ccccc3)cn21
hepatic extraction ratio: 0.43
